Data reported in US20260062443A1 (ALEXION PHARMACEUTICALS, INC., priority 2022, published 2026).

By UniProt entry, the sequences of proteins in these tests, tags left out. Residues count along the entry.
UniProt P09871, 438-688 limits assumed: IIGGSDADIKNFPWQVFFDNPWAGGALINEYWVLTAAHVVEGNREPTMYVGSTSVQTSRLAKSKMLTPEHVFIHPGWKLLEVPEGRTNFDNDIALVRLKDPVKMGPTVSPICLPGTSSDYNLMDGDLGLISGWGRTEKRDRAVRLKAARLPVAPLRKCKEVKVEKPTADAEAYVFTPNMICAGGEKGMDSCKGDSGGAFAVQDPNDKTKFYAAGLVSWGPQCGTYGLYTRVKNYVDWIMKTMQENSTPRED
UniProt P09871, 16-437 partner limits assumed: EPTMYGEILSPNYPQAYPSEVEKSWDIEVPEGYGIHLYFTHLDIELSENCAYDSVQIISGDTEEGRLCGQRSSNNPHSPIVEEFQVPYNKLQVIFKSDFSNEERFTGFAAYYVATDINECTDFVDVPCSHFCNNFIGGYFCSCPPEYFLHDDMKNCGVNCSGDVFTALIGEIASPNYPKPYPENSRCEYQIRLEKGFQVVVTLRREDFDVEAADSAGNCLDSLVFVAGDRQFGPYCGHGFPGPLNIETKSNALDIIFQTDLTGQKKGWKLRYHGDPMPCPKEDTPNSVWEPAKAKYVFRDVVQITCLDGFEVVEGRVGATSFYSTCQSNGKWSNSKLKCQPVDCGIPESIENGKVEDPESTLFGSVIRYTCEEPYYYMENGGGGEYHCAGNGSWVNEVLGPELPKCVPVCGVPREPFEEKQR

target: Human complement C1s enzyme (Homo sapiens, UniProt P09871); assay: Human C1s enzyme assay; assay type: biochemical; conditions: read-out: IC50 (Stars), C1s Inhibiting Activity; human complement C1s enzyme 1.16 nM, substrate Z-L-Lys-SBzl 100 μM, 5 min preincubation
Experimental: Other standard complement assays are also available.
Human complement C1s enzyme (purified from human serum, Complement Technology, Inc.) at 1.16 nM final concentration was incubated with test compound at various concentrations for 5 min at room temperature in 50 mM Tris, 1 M NaCl, pH 7.5. A synthetic substrate Z-L-Lys-SBzl and DTNB (Ellman's reagent) were added to final concentrations of 100 μM each. Absorbance at 405 nm (A405) was recorded at 30 second intervals for 30 min using a microplate spectrophotometer. IC50 values were calculated by nonlinear regression of complement C1 s reaction rates as a function of test compound concentration.
ND indicates a compound for which the IC50 value is not determined.

`C[C@@H](NC(=O)[C@@H]1C[C@@H](Cn2ccnn2)CN1C(=O)CNC(=O)c1ccc2c(c1)Oc1ccccc1S2)c1cc2cnccc2[nH]1` (relative stereo) was tested. Which pIC50 did it give?
Its pIC50 is greater than 7.00.

How did the pIC50 turn out when `C[C@@H](NC(=O)[C@@H]1C[C@H](Cn2ccnn2)CN1C(=O)CNC(=O)c1ccc2c(c1)Oc1ccccc1S2)c1cc2cnccc2[nH]1` was run?
The pIC50 was greater than 7.00.

With `C[C@@H](NC(=O)[C@@H]1CC(CN2CCCCC2)CN1C(=O)CNC(=O)c1ccc2c(c1)Oc1ccccc1S2)c1cc2cnccc2[nH]1` (some centres unmarked) as the molecule, how does the pIC50 read?
Its pIC50 is greater than 7.00.

How did the pIC50 turn out when `O=C(NCC(=O)N1C[C@H](OC(F)F)C[C@H]1C(=O)NCc1cc2cnccc2[nH]1)c1cnc2c(c1)Oc1ccccc1S2` was run?
Its pIC50 is greater than 7.00.

`O=C(NCC(=O)N1C[C@H](OC(F)F)C[C@H]1C(=O)NCc1cnc2cc[nH]c2c1)c1ccc2c(c1)Oc1ccccc1S2` was tested. Which pIC50 did it give?
The pIC50 was less than 6.00.

With `C[C@@H](NC(=O)[C@@H]1C[C@@H](Oc2ccccc2)CN1C(=O)CNC(=O)c1ccc2c(c1)Oc1ccccc1S2)c1cc2cnccc2[nH]1` as the molecule, how does the pIC50 read?
The pIC50 was greater than 7.00.

With `COc1ccc(Oc2ccc(C)cc2F)cc1C(=O)NCC(=O)N1C[C@H](OC(F)F)C[C@H]1C(=O)NCc1cc2cnccc2[nH]1` as the molecule, how does the pIC50 read?
The pIC50 was greater than 7.00.

With `Cc1ccc(Oc2cc(F)cc(C(=O)NCC(=O)N3C[C@H](OC(F)F)C[C@H]3C(=O)NCc3cc4cnccc4[nH]3)c2)c(F)c1` as the molecule, how does the pIC50 read?
Its pIC50 is greater than 7.00.

pIC50: −log10 of the molar value.
